According to patent publication US11091496B2, “Opioid ketal compounds and uses thereof” (priority 2013, dated 2021):
Like-named read-outs stand apart in the source and are kept apart here.

Assay type: physicochemical

| SMILES | Hydrolysis in 0.1 N HCl at 37° C. (hydrolyzed in four hours) | other results |
| --- | --- | --- |
| COc1ccc2c3c1OC1C4(CCC5[C@@H](C2)N(C)CC[C@@]351)OC(C)C(C)O4 (stereo partly shown) |  | Hydrolysis in 0.1 N HCl at 37° C. (hydrolyzed in 20 hours): 14.3% hydrolyzed in 20 hours |
| COc1ccc2c3c1OC1C4(CCC5(O)[C@@H](C2)N(C)CC[C@]315)OCC(C)O4 (stereo partly shown) | 1% hydrolyzed in four hours |  |
| COc1ccc2c3c1OC1C4(CCC5[C@@H](C2)N(C)CC[C@@]351)OCCO4 (stereo partly shown) | 2.5% hydrolyzed in four hours |  |
| CN1CC[C@]23c4c5ccc(O)c4OC2C2(CCC3[C@H]1C5)OCCO2 (stereo partly shown) |  | Hydrolysis in 0.1 N HCl at 37° C. (hydrolyzed in 19 hours): 6.6% hydrolyzed in 19 hours |
